# Assay results published in ChEMBL document CHEMBL1833814, “Discovery of BI 99179, a potent and selective inhibitor of type I fatty acid synthase with central exposure” (Bioorg Med Chem Lett, 2011).
# System: Rattus norvegicus
# Assay: Ratio of drug level in CSF to brain of Han/Wistar rat at 4 mg/kg, po measured at 2 hrs
# Settings: in vivo
smiles,measurement,value
CCC(=O)N[C@H]1CC[C@@H](C(=O)N(C)c2ccc(-c3nc4ccccc4o3)cc2)C1 [BI 99179],Ratio,4%
